From patent publication US11648295B2, “Methods of treating diseases resulting from a maladapted stress response” (Cortene Inc., priority 2016, dated 2023)

What was measured:
[1] = continuous (infusion) s.c. dosing, rats
[2] = molecular target: T1, CRFR1 (Homo sapiens, UniProt P34998); assay: in vitro binding potential for CRFR1 (table of FIG. 10); format: biochemical
T1 sequence (P34998 24-415): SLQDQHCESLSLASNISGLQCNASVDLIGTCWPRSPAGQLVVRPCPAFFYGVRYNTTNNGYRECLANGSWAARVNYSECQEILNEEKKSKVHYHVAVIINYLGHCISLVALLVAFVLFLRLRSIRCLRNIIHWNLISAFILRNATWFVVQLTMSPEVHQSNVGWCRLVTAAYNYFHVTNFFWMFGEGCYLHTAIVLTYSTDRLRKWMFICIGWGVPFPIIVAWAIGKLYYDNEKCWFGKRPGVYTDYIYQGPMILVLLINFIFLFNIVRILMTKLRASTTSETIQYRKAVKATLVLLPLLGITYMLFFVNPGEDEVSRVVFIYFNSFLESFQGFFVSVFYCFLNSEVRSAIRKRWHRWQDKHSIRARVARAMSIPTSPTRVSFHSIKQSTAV

With `CC[C@H](C)[C@H](NC(=O)[C@@H](NC(=O)[C@H](CC(=O)O)NC(=O)[C@H](CC(C)C)NC(=O)[C@H](CC(C)C)NC(=O)[C@H](CCCNC(=N)N)NC(=O)[C@H](C)NC(=O)[C@H](CC(N)=O)NC(=O)[C@H](CC(N)=O)NC(=O)[C@H](C)NC(=O)[C@H](C)NC(=O)[C@H](CCC(N)=O)NC(=O)[C@H](CCC(N)=O)NC(=O)[C@H](CCCCN)NC(=O)[C@H](CCC(=O)O)NC(=O)[C@H](CCCCN)NC(=O)[C@H](CCC(=O)O)NC(=O)[C@H](CCC(N)=O)NC(=O)[C@H](CCCCN)NC(=O)[C@H](CCC(=O)O)NC(=O)[C@@H](NC(=O)[C@H](CCC(=O)O)NC(=O)[C@@H](NC(=O)[C@@H](NC(=O)[C@H](CCCCN)NC(=O)[C@H](CCCNC(=N)N)NC(=O)[C@H](CC(C)C)NC(=O)[C@H](CC(C)C)NC(=O)[C@H](CCC(N)=O)NC(=O)[C@H](Cc1ccccc1)NC(=O)[C@@H]1CCCN1C(=O)[C@H](CC(C)C)NC(=O)[C@H](CC(=O)O)NC(=O)[C@@H](NC(=O)[C@H](CO)NC(=O)[C@@H](NC(=O)[C@@H]1CCCN1C(=O)[C@@H]1CCCN1C(=O)CNC(=O)[C@@H]1CCC(=O)N1)[C@@H](C)CC)[C@@H](C)CC)C(C)C)[C@@H](C)CC)[C@@H](C)CC)[C@@H](C)O)C(N)=O` [CT38] the “time to reach steady state plasma concentration” value [1] was about 5.2 h and the “in vitro binding potential for CRFR1” value [2] was “minimal, at high concentrations”.
